Experimental data published in US12453779B2, “Chemoselective thiol-conjugation with alkene or alkyne-phosphonothiolates and -phosphonates” (FORSCHUNGSVERBUND BERLIN E.V., priority 2018, dated 2025).

Tests used:
[1] = Thiol addition of glutathione monitored by UV LC-MS
[2] = target: bovine serum albumin (BSA) (Bos taurus, UniProt P02769); assay: BSA conjugation, in-gel chymotrypsin digest and MS/MS analysis
[3] = pH 8.5 & 50 eq. or pH 7.4 & 100 eq., estimated from signal intensity ratios
[4] = pH 8.5, 100 eq. PT, estimated from signal intensity ratios

C#CP(=O)(OC)SCc1ccccc1 (stereo not shown)
time to full conversion of the alkyne-phosphonothiolate with glutathione ([1]; buffer pH 8.5 / DMF, UV LC-MS): ca. 1 min | modification of the single free cysteine (C58) ([2]; pH 7.4/8.0/8.5 & 100 eq.): BSA was clearly detected and found to be ca. 90%

C=CP(=O)(OCC)SCc1ccccc1 (stereo not shown)
time to full conversion with glutathione ([1]; 2.0 eq. glutathione, buffer pH 8.0 / DMF, r.t., UPLC-MS): 90 min | degree of modification, C58-containing peptides ([2]; pH 8.5 & 50 eq. or pH 7.4 & 100 eq.): modification is high (>50%). | estimated degree of modification, H42 [2, 3]: 2-5% | estimated degree of modification, H91 [2, 3]: 5-10% | estimated degree of modification, H169/Y171/R168 [2, 3]: H169/ Y171/R168 ca. 1-5%, H361/R360 ca. | estimated degree of modification, H361/R360 [2, 3]: 1-5%, all values are estimated from signal intensity | degree of modification, C58-containing peptides ([2]; pH 8.5, 100 eq. PT, 18 h, 4 °C): The degree of modification is high (>50%). | estimated degree of modification, H42 [2, 4]: significantly lower for these peptides: (H42 ca. 5-10%, | estimated degree of modification, H91/S89/T92 [2, 4]: H91/S89/T92 ca. 10-20%, H169/ R168 smaller | estimated degree of modification, H169/R168 [2, 4]: < 1% | estimated degree of modification, H361/R360 [2, 4]: 5-10%
